In the data set the test system is Zone of skin. Conditions: human.

Regarding `O=C(O)c1ccccc1O` [SALYCILIC ACID], the “log Kp” value was -5.45.

The values above are taken from ChEMBL document CHEMBL1140614, “In silico and in vitro filters for the fast estimation of skin permeation and distribution of new chemical entities” (J Med Chem, 2007).
